{
  "source": "PubChem BioAssay AID1259423",
  "about": "(Fisher Drug Discovery Resource Center, 2018)",
  "note": "Values joined by “and” are separate entries in the source; they are usually repeats but may differ in a detail not shown here. Equal values may be shown once. Only a part is listed here, and it is no random draw. Some structures show a salt or complex split into parts, the way the source records it. Active and inactive are the calls of the source. Rule as the data show it: active = activation above about 40%; inactive = the rest, inconclusive results apart.",
  "data": [
    {"tested_on": "Aedes aegypti neuropeptide Y-like receptor 7 (NPYLR7)", "test": "agonists of mosquito NPYLR7 receptor, primary screen, cell-based, Aedes aegypti, calcium fluorescence, mosquito biting behavior (AID 1259423);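 also: 0% = vehicle and 100% = reference agonist at the receptor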", "settings": "HEK293T NPYLR7/Galpha15, GCaMP6s calcium fluorescence; at 10 µM; hits give high values", "values": [
      {"smiles": "CP(=O)(O)OC(c1ccccc1)C(F)(F)C(F)(F)F", "note": "(stereo not given)", "activation": "inactive: 2.39%"},
      {"smiles": "Cc1cc(C)cc(OP(C)(=O)Nc2cc(Cl)ccc2C)c1", "note": "(stereo not given)", "activation": "inactive: 7.88%"},
      {"smiles": "CP(N)(=O)Oc1ccccc1F", "note": "(stereo not given)", "activation": "inactive: -2.79%"},
      {"smiles": "CN1CC(=O)N(C)P1(C)=S", "note": "(stereo not given)", "activation": "inactive: 1.31%"},
      {"smiles": "O=[N+]([O-])C1([N+](=O)[O-])COCOC1", "activation": "inactive: 36%"},
      {"smiles": "CN([N+](=O)[O-])C(Br)([N+](=O)[O-])[N+](=O)[O-]", "activation": "inactive: -11.7%"},
      {"smiles": "Cc1ccc(NP(C)(=O)Oc2ccc(Cl)cc2)cc1", "note": "(stereo not given)", "activation": "inactive: -5.9%"},
      {"smiles": "Cn1cc([N+](=O)[O-])nc1[N+](=O)[O-]", "activation": "inactive: -2.03%"},
      {"smiles": "CP(=O)(Nc1cccc(F)c1)Oc1ccc(Cl)cc1", "note": "(stereo not given)", "activation": "inactive: 1.42%"},
      {"smiles": "CP(=O)(Nc1ccc(Cl)cc1Cl)Oc1ccccc1", "note": "(stereo not given)", "activation": "inactive: 5.1%"},
      {"smiles": "CP(=O)(Nc1ccc(F)cc1)Oc1ccc(Cl)cc1", "note": "(stereo not given)", "activation": "inactive: 2.87%"},
      {"smiles": "OCCSCCO", "activation": "inactive: -13.1%"},
      {"smiles": "COc1ccc(OP(C)(=O)Nc2ccc(Br)cc2)cc1", "note": "(stereo not given)", "activation": "inactive: 1.42%"},
      {"smiles": "COc1cccc(C(OP(C)(=O)O)C(F)(F)F)c1", "note": "(stereo not given)", "activation": "inactive: 6.09%"},
      {"smiles": "CP(=O)(Oc1ccc(F)cc1)OC(c1ccccc1)C(F)(F)F", "note": "(stereo not given)", "activation": "inactive: 1.75%"},
      {"smiles": "CC(C)(C)c1ccc(OP(C)(=O)O)cc1", "activation": "inactive: 5.91%"},
      {"smiles": "CCCCOc1ccc(NP(C)(=O)Oc2ccc(CC)cc2)cc1", "note": "(stereo not given)", "activation": "inactive: 2.72%"},
      {"smiles": "CP(=O)(O)OC(c1ccccc1)C(F)(F)F", "note": "(stereo not given)", "activation": "inactive: 7.43%"},
      {"smiles": "Nc1nonc1N=Nc1nonc1N", "activation": "inactive: 2.03%"},
      {"smiles": "CP(=O)(Nc1ccccc1Br)Oc1ccccc1", "note": "(stereo not given)", "activation": "inactive: 6.9% and inactive: -0.332%"},
      {"smiles": "CP(=O)(O)OC(c1cccc(Cl)c1)C(F)(F)F", "note": "(stereo not given)", "activation": "inactive: -3.72%"},
      {"smiles": "CP(=O)(Oc1ccccc1)OC(c1ccccc1)C(F)(F)F", "note": "(stereo not given)", "activation": "inactive: 6.98%"},
      {"smiles": "COC(=O)NC(c1ccccc1)P(=O)(Cl)Cl", "note": "(stereo not given)", "activation": "inactive: 4.05%"},
      {"smiles": "CN(C)CCS", "activation": "inactive: -13.3%"},
      {"smiles": "CCOP(C)(=S)SCN(CC(=O)O)C(=O)OC", "note": "(stereo not given)", "activation": "inactive: 3.26%"},
      {"smiles": "Cc1cccc(C)c1OP(C)(N)=O", "note": "(stereo not given)", "activation": "inactive: 7.88%"},
      {"smiles": "CP(=O)(Nc1ccc(Br)cc1)Oc1ccccc1", "note": "(stereo not given)", "activation": "inactive: 168%"},
      {"smiles": "CC(C)(C)c1ccc(OP(C)(N)=O)cc1", "note": "(stereo not given)", "activation": "inactive: 4.39%"},
      {"smiles": "COc1ccc(OP(C)(=O)Nc2cccc(F)c2)cc1", "note": "(stereo not given)", "activation": "inactive: 2.04%"},
      {"smiles": "Cc1cc(C)cc(OP(C)(N)=O)c1", "note": "(stereo not given)", "activation": "inactive: 6.36%"},
      {"smiles": "CCN(C1=NCCCS1)P(O)(=S)CC", "note": "(stereo not given)", "activation": "inactive: -6.42%"},
      {"smiles": "CP(=O)(O)OC(c1cccc(C(F)(F)F)c1)C(F)(F)F", "note": "(stereo not given)", "activation": "inactive: -1.47%"},
      {"smiles": "Cc1ccc(NP(C)(=O)Oc2ccc(C(C)(C)C)cc2)cc1", "note": "(stereo not given)", "activation": "inactive: 3.04%"},
      {"smiles": "Cc1ccc(NP(C)(=O)Oc2ccc(C(C)C)cc2)cc1C", "note": "(stereo not given)", "activation": "inactive: 2.42%"},
      {"smiles": "CC(=O)N(CCN(C(C)=O)[N+](=O)[O-])[N+](=O)[O-]", "activation": "inactive: -8.83%"},
      {"smiles": "C/C1=C2N=C(/C=C3N=C(/C(C)=C4\\[N-]C(C)(C5N=C1C(C)(CCC(=O)NCC(C)OP(=O)(O)OC1C(CO)OC(n6cnc7cc(C)c(C)cc76)C1O)C5CC(N)=O)C(C)(CC(N)=O)C4CCC(N)=O)C(C)(CC(N)=O)C\\3CCC(N)=O)C(C)(C)C/2CCC(N)=O.[C-]#N.[Co+3]", "note": "(stereo not given)", "activation": "inactive: -5%"},
      {"smiles": "CP(=O)(Nc1ccc(Br)cc1)Oc1ccc(Cl)cc1", "note": "(stereo not given)", "activation": "inactive: 6.36%"},
      {"smiles": "Cc1ccc(Cl)cc1NP(C)(=O)Oc1ccccc1", "note": "(stereo not given)", "activation": "inactive: -6.73%"},
      {"smiles": "COc1ccc(OP(C)(=O)Nc2ccc(Cl)cc2)cc1", "note": "(stereo not given)", "activation": "inactive: 4.57%"},
      {"smiles": "Nc1cc([N+](=O)[O-])cc([N+](=O)[O-])c1O", "activation": "inactive: -2.27%"}
    ]}
  ]
}
